The numbers were not newly measured in patent publication US20250073235A1, “INHIBITION OF MAST CELL TUMOR NECROSIS FACTOR FOR THERAPEUTIC USE” (The University of Southern Mississippi, priority 2023, published 2025), which cites them from elsewhere.

Protein sequences, listed by entry. Tags and fused reporters are not part of them.
UniProt P45983, whole entry, species assumed: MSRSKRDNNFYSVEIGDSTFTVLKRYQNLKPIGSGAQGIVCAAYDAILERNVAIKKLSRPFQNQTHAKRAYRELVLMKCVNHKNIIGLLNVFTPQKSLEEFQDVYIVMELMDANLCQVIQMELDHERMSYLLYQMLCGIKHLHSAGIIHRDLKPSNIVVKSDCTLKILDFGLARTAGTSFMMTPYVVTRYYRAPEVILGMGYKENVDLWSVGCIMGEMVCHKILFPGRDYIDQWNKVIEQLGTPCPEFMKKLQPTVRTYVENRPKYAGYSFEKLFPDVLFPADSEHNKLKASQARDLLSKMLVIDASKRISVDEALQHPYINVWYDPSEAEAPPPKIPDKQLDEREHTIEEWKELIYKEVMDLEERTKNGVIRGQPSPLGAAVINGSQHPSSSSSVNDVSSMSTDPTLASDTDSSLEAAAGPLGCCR
UniProt P53779, whole entry, species assumed: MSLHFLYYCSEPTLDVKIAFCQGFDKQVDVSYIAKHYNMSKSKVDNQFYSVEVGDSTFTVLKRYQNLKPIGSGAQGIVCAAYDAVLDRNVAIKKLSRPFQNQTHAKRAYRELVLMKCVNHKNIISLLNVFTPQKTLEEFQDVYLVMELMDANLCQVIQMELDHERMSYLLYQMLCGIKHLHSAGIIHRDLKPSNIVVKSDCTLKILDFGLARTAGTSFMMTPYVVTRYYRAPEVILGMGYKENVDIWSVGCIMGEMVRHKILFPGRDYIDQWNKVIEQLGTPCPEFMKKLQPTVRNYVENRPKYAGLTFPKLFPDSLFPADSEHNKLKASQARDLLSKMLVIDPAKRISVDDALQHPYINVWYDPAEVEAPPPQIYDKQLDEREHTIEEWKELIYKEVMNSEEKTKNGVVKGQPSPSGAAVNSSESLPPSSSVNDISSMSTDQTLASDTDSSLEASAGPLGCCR

pIC50: −log10 of the molar value.

In general, pIC50 refers to the negative decadic logarithm of the IC50, by convention in mol/L.

In one data set the target is JNK1 (Homo sapiens, UniProt P45983). The following applies: cited from earlier work.
The next data set has as its target JNK3 (Homo sapiens, UniProt P53779). Conditions: cited from earlier work.

In the case of `Cc1cc(NC(=O)c2cccc(NC(=O)/C=C/CN(C)C)c2)ccc1Nc1nccc(-c2cccnc2)n1` [JNK-IN-8], the pIC50 on JNK1 was 8.33; at JNK3, 9.00.
